In the library only some 0.62% were active in any assay of this set; here they are far more common.
miR-21 FLuc: miR-21 reporter, rising signal | AID 2288 | HeLa miR-21 FLuc reporter, luciferase, 48 h | 340,000 tested, under 10 active | Potency, µM (titrated, usually from 38.3 µM), for the others: at the top dose reporter change, positive = more light; active = well fitted rising curve with a large enough effect; inconclusive = small, poorly fitted or top-dose-only effect; inactive = no such curve, though single readings can be large or run the other way;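 also: % of control where 0% means no effect; miR-21 action dims this reporter so a rising signal means less miR-21 action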
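HeLa miR-21-FLuc reporter line, endogenous miR-21; 2000 cells/well in DMEM/10% FBS; compound titration up to ~40uM final, 48 h, 37 degree Celsius; luciferase detection reagent, 15 min lysis, CCD luminescence.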
IL2 activator: IL-2 activation; actives 0.065% (n = 360,000); activation, % (series mostly up to about 46 µM); AID 652025; IL-2 activation reporter assay, cell-based qHTS; stimulated with anti-CD3/CD4/CD28 beads; in transgenic mouse T cells; in the data active means activation above about 50%; inconclusive means mostly about 30% to 49%; further: 0% is about no effect
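EGFP and DsRed fluorescence is measured by plate cytometry in unstimulated transgenic mouse T cells exposed to compound for 60 minutes, then stimulated 18 hours at 37 degrees C with anti-CD3/anti-CD4 beads plus anti-CD28.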
Epigenetic reg: regulators of epigenetic silencing causing reporter derepression in mouse cells. AID 1865. murine LDR cells, GFP reporter derepression, 30 h. actives 0.2% (n = 280,000). Potency, µM (series often up to 53.9 µM), inactives show at the top dose GFP activation, usual class: activators; further: potency means the concentration at half of the fitted maximal effect; % of control where 0% means no effect; nearly all actives have a fitted effect of over 60% in size
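GFP-positive cell count by laser-scanning cytometry (objects 20–120 um) after 30 h, 37 C compound exposure of murine LDR cells; reporter is CMV-GFP integrated at a silenced locus, inducible by HDAC or DNMT inhibitors.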
uPA generation: blocks generation of uPA at the cell surface. actives 0.31% (n = 330,000). cell surface uPA generation assay, qHTS. Potency, µM (doses to about 38.3 µM), inactives show at the top dose activity change, negative = inhibition, most hits filed as inhibitors; active means well fitted inhibition curve with a large enough effect; inconclusive means small, poorly fitted or top-dose-only effect; inactive means no such curve, though single readings can be large or run the other way; tested in mouse RAW 264.7 cells; further: potency means the concentration at half of the fitted maximal effect; on the % scale 0 is the no-effect control and ±100 the full control effect; nearly all actives have a fitted effect of over 55% in size
PINK1 modulator: modulators of PINK1 expression. Potency, µM (top dose mostly 76.6 µM), inactives show at the top dose activation (PINK1 increase), usual class: activators. actives 0.2% (n = 410,000). AID 624263. PINK1 immunofluorescence, high-content cytometry, 24 h; active means well fitted activation curve with a large enough effect; inconclusive means small, poorly fitted or top-dose-only effect; cell line not stated here; further: potency means the concentration at half of the fitted maximal effect; % of control where 0% means no effect; nearly all actives have a fitted effect of over 65% in size
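A stable cell line was treated with compounds at 5 concentrations for 24 hours, with CCCP as control. PINK1 levels and mitochondrial localization were measured by immunofluorescence with mitochondrial, cell and nuclear markers after fixation, read by laser-scanning cytometry.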
p53 reactivation: restores transcriptional activity of mutant p53; H1299 p53-A138V BP100-luciferase reporter, luminescence, 24 h; Potency, µM (titrated, usually from 92.2 µM), without a hit: top-dose activity change, positive = activation, hits mostly activators; actives 0.063% (n = 320,000); AID 504706; further: potency means the concentration at half of the fitted maximal effect; % of control where 0% means no effect; nearly all actives have a fitted effect of over 45% in size
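p53-null H1299 cells stably carrying temperature-sensitive p53-A138V and a BP100-luciferase reporter were pinned with compounds (4-point, 1:5 series) and held 24 hrs at 37 deg C. Luminescence was read 10 min after detection reagent.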
* hit, by the source's call; ? = inconclusive; . = no result given; [ ] = another dose, or the depositor's remark. Unless noted, the call rests on the fitted dose curve; in most records, active means well fitted curve in the direction sought with a large enough effect; inconclusive means small, poorly fitted or top-dose-only effect, or another doubt; inactive means no such curve, though single readings can be large; an effect the other way counts as inactive or inconclusive.

SMILES	miR-21 FLuc	IL2 activator	Epigenetic reg	uPA generation	PINK1 modulator	p53 reactivation
CN(C)S(=O)(=O)c1ccc2[nH]cc(/C=C/c3nc4ccccc4c(=O)n3-c3ccccc3)c2c1	4.7%	3.4	-0.1%	-17.6%	11.2µM*	0.4%
Cc1c(C(=O)N(C)C2CCOC2)sc2ncnc(NCC3(c4ccccc4)CCOCC3)c12 (stereo not drawn)	.	.	.	.	0.5%	.
COc1ccc(-c2ccc(-c3noc(C)n3)c(OC)n2)cc1	-30.5%	-0.8	-1.0%	.	15.8µM*	16.4%
CCN(CC)c1ccc2cc(C(=O)NNC(=O)c3ccc(S(=O)(=O)N4CCCCC4)cc3)c(=O)oc2c1	-3.7%	58.6*	?	0.4%	4.5%	-7.5%
N/C(=N\OC(=O)c1ccc2ccccc2c1)c1ccncc1	-60.4%	-0.2	1.0%	-16.2%	3.5%	12.9%
N/C(=N\OC(=O)c1ccc2ccccc2c1)c1ccccc1Cl	?	-0.6	.	?	-1.6%	20µM*
COC1=C(Nc2ccccc2OC)C(=O)c2ccccc2C1=O	3.1%	0.2	0.0%	3.9%	-1.3%	-4.4%
COc1ccccc1NC1=C(NC(C)=O)C(=O)c2ccccc2C1=O	11.7%	0.5	-7.4%	12.6µM*	0.0%	-6.1%
Cc1ncc2c(c1CNC(=O)c1cncs1)CCN(C(=O)c1ccc(C(C)(C)C)cc1)C2	.	.	.	.	-0.6%	.
COc1cccc(/C=N/NC(=S)Nc2cccnc2)c1	-38.5%	-0.4	9.4%	-7.8%	4.6%	2.1%

Overlap with the part before: three compounds, followed by the next part.
SMILES	miR-21 FLuc	IL2 activator	Epigenetic reg	uPA generation	PINK1 modulator	p53 reactivation
COc1ccccc1NC1=C(NC(C)=O)C(=O)c2ccccc2C1=O	11.7%	0.5	-7.4%	12.6µM*	0.0%	-6.1%
Cc1ncc2c(c1CNC(=O)c1cncs1)CCN(C(=O)c1ccc(C(C)(C)C)cc1)C2	.	.	.	.	-0.6%	.
COc1cccc(/C=N/NC(=S)Nc2cccnc2)c1	-38.5%	-0.4	9.4%	-7.8%	4.6%	2.1%
Oc1ccc(/C=N/NC(=S)Nc2cccnc2)cc1	-5.5%	2.1	-0.1%	3.98µM*	1.5%	7.7%
CCOC(=O)c1ccc2c(c1)nc(SCC(=O)c1ccco1)n2CC	-42.9%	0.9	-6.5%	-8.2%	-0.7%	-0.1%
CCOC(=O)c1ccc2c(c1)nc(SC/C(O)=C(\C#N)c1nc3ccccc3[nH]1)n2CC	-13.7%	1.6	-0.7%	-0.3%	39.8µM*	-2.3%
COc1ccccc1-c1ccnc(-n2ncc(C(=O)NC3CCCN(Cc4ccccc4)C3)c2C)n1 (stereo not drawn)	.	.	.	.	-0.1%	.
COc1ccc(-n2cc(C(=O)c3cc(Cl)ccc3O)cc(C#N)c2=O)cc1	14.1%	-1.4	0.2%	-3.1%	?	0.7%
Cc1ccccc1NC(=O)c1cc(C(=O)c2cc(Cl)ccc2O)cn(-c2ccccc2C)c1=O	23.6%	1.1	-1.3%	-7.9%	15.8µM*	?
CCOCCCn1cc(C(=O)c2cc(Br)ccc2O)cc(C#N)c1=O	16.5%	-2.4	2.1%	-7.6%	3.6%	3.6%
Cc1ccc(-n2cc(C(=O)c3cc(Cl)ccc3O)cc(C#N)c2=O)cc1	25.7%	-0.3	-1.3%	-2.0%	17.8µM*	13.3%
CCCCn1cc(C(=O)c2cc(Br)ccc2O)cc(C#N)c1=O	29.0%	-2.3	-1.1%	-12.0%	17.8µM*	0.7%
C#Cc1cccc(C(=O)NCc2nc(-c3ccccc3NC(C)=O)oc2C)c1	.	.	.	.	-0.9%	.

Whole records, quoted from the list:
COc1ccc(-n2cc(C(=O)c3cc(Cl)ccc3O)cc(C#N)c2=O)cc1 in the list: miR-21 FLuc: 14.1%; IL2 activator: -1.4; Epigenetic reg: 0.2%; uPA generation: -3.1%; PINK1 modulator: ?; p53 reactivation: 0.7%
COc1ccccc1-c1ccnc(-n2ncc(C(=O)NC3CCCN(Cc4ccccc4)C3)c2C)n1 (stereo not drawn) in the list: miR-21 FLuc: .; IL2 activator: .; Epigenetic reg: .; uPA generation: .; PINK1 modulator: -0.1%; p53 reactivation: .

Further structures follow.
SMILES	miR-21 FLuc	IL2 activator	Epigenetic reg	uPA generation	PINK1 modulator	p53 reactivation
C[n+]1ccccc1/C=C1\Sc2ccccc2N1CCO	11.2%	-1.0	.	1.7%	0.4%	1.6%
CCC(CO)[n+]1c(C)cc(/C=C2\Sc3ccccc3N2Cc2ccccc2)cc1C (stereo not drawn)	?	12.7	?	-7.6%	11.2µM*	-16.9%
CCn1cc(/C=N/NC(=O)c2ccc(C#N)cc2F)c2ccccc21	-3.7%	-3.5	-1.1%	-0.8%	3.8%[38.3 µM]	1.2%
COC(=O)Cn1cc(/C=N/NC(=O)c2ccc(C#N)cc2F)c2ccccc21	-10.3%	-2.3	-1.2%	-9.1%	11.2µM*	-9.5%
CNC(=O)c1sc2nc(-c3ccc(OC)cc3)cn2c1C	-79.8%	-1.1	2.3%	?	-1.3%	?
COc1ccc(-c2cn3c(C)c(C(=O)Nc4cc(NC(C)=O)ccc4OC)sc3n2)cc1	10.4%	15.4	3.0%	?	10µM*	7.3%
COc1cc(-c2c(OC)cccc2OC)cc2c1OCCN(Cc1cn[nH]c1-c1ccc(Cl)cc1)C2	.	.	.	.	-0.4%	.
Oc1ccc(-c2csc(Nc3ccccn3)n2)cc1O	-68.9%	0.9	.	3.98µM*	27.3%	?
Cc1ccc(Nc2nc(-c3cccs3)cs2)nc1	22.4%	1.2	-0.3%	?	5.6%	-6.0%
Cc1ccc(Nc2nc(-c3ccccc3)cs2)nc1	17.3%	1.2	.	10µM*	1.4%	.
COCCCn1c(=O)/c(=C\c2ccc(OC(F)F)c(OC)c2)s/c1=C(/C#N)C(N)=O	-6.3%	0.4	?	-10.1%	11.3%	6.1%
COCCCn1c(=O)/c(=C\c2ccccc2OC(F)F)s/c1=C(/C#N)C(N)=O	-3.7%	0.1	?	1.7%	35.5µM*	0.2%
O=C(NCCN1CCOCC1)c1cnn(-c2nccc(-c3ccccc3F)n2)c1C1CC1	.	.	.	.	-0.4%	.
CCOn1c(=O)c(C)[n+]([O-])c2ccccc21	-2.3%	0.0	20µM*	-7.9%	0.2%	2.1%
COC(=O)c1cc(CNC(=O)c2ccc3ncccc3c2)cc(NC(=O)c2ccccc2Cl)c1	.	.	.	.	0.4%	.
COc1c(OC(C)=O)ccc(/C=C/c2ccc3ccccc3n2)c1[N+](=O)[O-]	-43.1%	-1.1	0.4%	-22.7%	10µM*	?
COc1cc2nc(N3CCCN(C)CC3)nc(NC3CCNCC3)c2cc1OC	.	.	.	.	-0.3%	.
Cc1ccccc1CN1c2ccccc2-c2nc(SCC(=O)NCCc3ccccc3)ncc2S1(=O)=O	-0.9%	.	22.4µM*	.	2.7%	.
COc1ccc2c(c1)C(=O)[C@H](OC(=O)N[C@H](C)C1CCCCC1)[C@@H](c1ccc(OC)c(Br)c1)O2	.	.	0.0%	.	.	.
O=c1oc2ccccc2nc1/C=C(\O)c1ccccc1	-28.4%	-0.5	?	2.24µM*	1.0%	?
Cc1ccc(CNc2nc(CN3CCSCC3)nc3ccccc23)o1	.	.	.	.	0.1%	.
CCOC(=O)c1ccc(Nc2ccc(C(C)=O)cc2)cc1	.	-0.3	.	.	0.4%	.
CCOC(=O)c1ccc(Nc2nnc(C(C)(C)C)c(=O)[nH]2)cc1	-9.1%	-2.7	?	0.9%	25.1µM*	?
Cc1[nH]c2c(F)cccc2c1CC(=O)NCCN1Cc2ccccc2OC(C)C1 (stereo not drawn)	.	.	.	.	-0.2%	.
COc1ccc2[nH]c3c(c2c1)CCNC3C1CC=C(C)CC1 (stereo not drawn)	27.6%	0.9	0.0%	2.82µM*	9.5%	-1.4%

Bioassay records (PubChem BioAssay)
